This note sets out measurements from patent US20220056149A1, “SINGLE-DOMAIN ANTIBODY-CYTOSINE DEAMINASE FUSION PROTEINS” (LUMOSA THERAPEUTICS, CO., LTD., priority 2018, published 2022).

By UniProt entry, the sequences of proteins in these tests, tags left out. Chains listed by the source or under a name are the forms on record and can include a tag or linker.
UniProt P35968, with tags, fused parts or gaps limits assumed: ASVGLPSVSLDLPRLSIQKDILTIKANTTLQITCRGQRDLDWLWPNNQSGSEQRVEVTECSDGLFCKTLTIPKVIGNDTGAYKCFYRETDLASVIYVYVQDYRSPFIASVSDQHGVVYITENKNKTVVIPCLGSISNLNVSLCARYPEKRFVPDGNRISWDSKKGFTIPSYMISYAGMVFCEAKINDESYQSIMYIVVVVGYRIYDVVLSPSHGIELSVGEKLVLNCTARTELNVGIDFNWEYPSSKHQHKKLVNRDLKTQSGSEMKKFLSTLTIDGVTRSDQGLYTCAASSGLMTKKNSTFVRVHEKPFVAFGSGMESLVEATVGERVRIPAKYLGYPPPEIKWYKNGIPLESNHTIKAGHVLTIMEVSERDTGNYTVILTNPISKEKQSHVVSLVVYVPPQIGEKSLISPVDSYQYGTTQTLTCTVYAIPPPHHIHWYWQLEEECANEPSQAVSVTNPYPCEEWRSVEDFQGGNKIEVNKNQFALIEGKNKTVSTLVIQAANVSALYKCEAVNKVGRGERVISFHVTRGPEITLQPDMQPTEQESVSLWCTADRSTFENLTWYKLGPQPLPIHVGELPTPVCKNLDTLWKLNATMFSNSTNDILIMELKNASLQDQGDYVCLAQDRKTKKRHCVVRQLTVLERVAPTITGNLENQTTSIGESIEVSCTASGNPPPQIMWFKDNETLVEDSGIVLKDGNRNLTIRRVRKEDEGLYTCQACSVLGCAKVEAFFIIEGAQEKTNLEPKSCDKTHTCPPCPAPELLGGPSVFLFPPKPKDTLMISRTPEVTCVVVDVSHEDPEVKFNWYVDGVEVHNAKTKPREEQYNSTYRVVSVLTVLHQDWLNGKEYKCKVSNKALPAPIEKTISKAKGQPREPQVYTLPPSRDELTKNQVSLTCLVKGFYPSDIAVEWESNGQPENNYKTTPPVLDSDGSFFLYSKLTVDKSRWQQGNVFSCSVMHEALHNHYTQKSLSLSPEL

Substitutions are numbered along the chain they refer to.

Data set [1] deals with T1, Human VEGFR2-Fc (Homo sapiens, UniProt P35968).
T1 construct: Fc; purchased Sino Biological
Nature of the data set: VEGFR2 binding ELISA. As for the experimental part: The binding between human VEGFR2 and the sdAb-CD fusion proteins disclosed herein was tested by ELISA. For the VEGFR2 binding assay, the coating antibody Human VEGFR2-Fc (Sino Biological) was diluted to 1 μg/ml in coating buffer (100 mM NaHCO3+32 mM Na2HCO3). Blocking was performed by incubating with blocking buffer (0.25% BSA, 0.05% Tween-20, 0.05% NaN3, 1 mM EDTA) for 2 hours. The tested fusion protein samples were prepared in blocking buffer and added to wells for binding. Rabbit anti-His-HRP (abcam) was diluted 5000-fold in a buffer comprising 0.25% BSA and 0.05% Tween 20 for detection.

The target in data set [2] is T2, human ErbB2/Her2-Fc (Homo sapiens, UniProt P04626).
T2 construct: Fc; purchased Acro biosystem
As to the kind of experiment: HER2 binding ELISA. The text has this: (§1) For the HER2, HER3 and CEA binding assays, the coating antibody for each assay was human ErbB2/Her2-Fc (Acro biosystem), human ErbB3/Her3-Fc (Acro biosystem), and human CEACAM5-Fc (novoprotein), respectively.

Data set [3] addresses T3, human CEACAM5-Fc (Homo sapiens, UniProt P06731).
T3 construct: Fc; purchased novoprotein
As to the kind of experiment: CEA binding ELISA.
Text: as §1

The nature of data set [4]: Stability study (turbidity/appearance) of sdAb-CD produced from different E. coli strains. It counts as physicochemical. More on the design: key to Turbidity: +++++: The number of “+” indicates the turbidity level; +++: The number of “+” indicates the turbidity level; ++: The number of “+” indicates the turbidity level; The number of “+” indicates the turbidity level; “+/−” means that very minor aggregation was observed. Particulars: for Turbidity: 3 mg/mL; for precipitations (appearance of purified protein): overall statement on Table 1. As for the experimental part: The 3VGR19-CD-H fusion proteins expressed from SHuffle® T7 Express and T7 Express Competent E. coli were purified and dialyzed into the following four buffers at 3 mg/mL: (1) PBS (2) 1% glycerol in PBS (3) 5% glycerol in PBS (4) 3% mannitol in PBS. The appearances of the purified protein in each buffer were observed after incubation at 37° C. for 3 hours, 37° C. for 8 hours and 4° C. for 1 week, and summarized in Table 1. The number of “+” indicates the turbidity level. “+/−” means that very minor aggregation was observed.

Data set [5] addresses T4, human ErbB3/Her3-Fc (Homo sapiens, UniProt P21860).
T4 construct: Fc; purchased Acro biosystem
As to the kind of experiment: HER3 binding ELISA.
Text: as §1

B1: 4VGR38-CD-H: anti-VEGFR2 sdAb 4VGR38 fused to yeast cytosine deaminase, with HIS-tag (protein)
chain: QVQLQESGGGSVQAGGSLTLSCEVSGYSVNSNSMGWFRQAPGKEREGVAGINEGGVSTYYANFVQGRFTISQDNAKNMVYLQMNSLKPEDTAIYYCAAGAPDPPPLIESIVKYWGQGTQVTVSSGGGGSGGGGSGGGGSVTGGMASKWDQKGMDIAYEEAALGYKEGGVPIGGCLINNKDGSVLGRGHNMRFQKGSATLHGEISTLENCGRLEGKVYKDTTLYTTLSPCDMCTGAIIMYGIPRCVVGENVNFKSKGEKYLQTRGHEVVVVDDERCKKIMKQFIDERPQDWFEDIGEHHHHHH
For the molecule B1, the “binding to VEGFR2 (ELISA)” value in data set [1] is recorded as “bind to VEGFR2”.

B2: 47D5-CDoem3-H: anti-HER2 sdAb 47D5 fused to CDoem3, with HIS-tag (protein)
chain: KVQLVESGGGLVQPGGSLRLSCAASGSIFGFNDMAWYRQAPGKQRELVALISRVGVTSSADSVKGRFTISRVNAKDTVYLQMNSLKPEDTAVYYCYMDQRLDGSTLAYWGQGTQVTVSSGGGGSGGGGSGGGGSVTGGMASKWDQKGMDIAYEEALLGYKEGGVPIGGCLINNKDGSVLGRGHNMRFQKGSATLHGEISTLENCGRLEGKVYKDTTLYTTLSPCDMCTGAIIMYGIPRCVIGENVNFKSKGEKYLQTRGHEVVVVDDERCKKLMKQFIDERPQDWFEDIGEHHHHHH
For the molecule B2, the “binding to HER2 (ELISA)” value in data set [2] is reported as “bind to HER2”.

B3: NbCEA5-CDoem3-H: anti-CEA sdAb NbCEA5 fused to CDoem3, with HIS-tag (protein)
chain: QVQLVESGGGSVQAGGSLRLSCAASGDTYGSYWMGWFRQAPGKEREGVAAINRGGGYTVYADSVKGRFTISRDTAKNTVYLQMNSLRPDDTADYYCAASGVLGGLHEDWFNYWGQGTQVTVSSGGGGSGGGGSGGGGSVTGGMASKWDQKGMDIAYEEALLGYKEGGVPIGGCLINNKDGSVLGRGHNMRFQKGSATLHGEISTLENCGRLEGKVYKDTTLYTTLSPCDMCTGAIIMYGIPRCVIGENVNFKSKGEKYLQTRGHEVVVVDDERCKKLMKQFIDERPQDWFEDIGEHHHHHH
Turning to B3, the “binding to CEACAM5 (ELISA)” value in data set [3] is listed as “bind to CEACAM5”.

B4: 2D3-CDoem3-H: anti-HER2 sdAb 2D3 fused to CDoem3, with HIS-tag (protein)
chain: EVQLVESGGSLVQPGGSLRLSCAASGFTFDDYAMSWVRQVPGKGLEWVSSINWSGTHTDYADSVKGRFTISRNNANNTLYLQMNSLKSEDTAVYYCAKNWRDAGTTWFEKSGSAGQGTQVTVSSGGGGSGGGGSGGGGSVTGGMASKWDQKGMDIAYEEALLGYKEGGVPIGGCLINNKDGSVLGRGHNMRFQKGSATLHGEISTLENCGRLEGKVYKDTTLYTTLSPCDMCTGAIIMYGIPRCVIGENVNFKSKGEKYLQTRGHEVVVVDDERCKKLMKQFIDERPQDWFEDIGEHHHHHH
As to B4, the “binding to HER2 (ELISA)” value in data set [2] is “bind to HER2”.

B5: 3VGR19-CD-H: anti-VEGFR2 sdAb 3VGR19 fused via (GGGGS)3 linker to yeast cytosine deaminase, with HIS-tag (protein)
chain: QVQLQESGGGSVQAGGSLRLSCVASGYSVSKNSMGWFRQAPGKEREGVAGINEGGTATYYANSVKGRFTISQDNAKNTVYLQMNTLKPEDTAIYYCAAGSPDPPPLIESVVKYWGQGTQVTVSSGGGGSGGGGSGGGGSVTGGMASKWDQKGMDIAYEEAALGYKEGGVPIGGCLINNKDGSVLGRGHNMRFQKGSATLHGEISTLENCGRLEGKVYKDTTLYTTLSPCDMCTGAIIMYGIPRCVVGENVNFKSKGEKYLQTRGHEVVVVDDERCKKIMKQFIDERPQDWFEDIGEHHHHHH
As to B5, the Turbidity entry is on record as “+/−” in data set [4] (SHuffle T7 Express, buffer 1 (PBS), 4° C., 1 week); “+/−” in data set [4] (SHuffle T7 Express, buffer 2 (1% glycerol in PBS), 4° C., 1 week); “+/−” in data set [4] (SHuffle T7 Express, buffer 3 (5% glycerol in PBS), 4° C., 1 week); “+/−” in data set [4] (SHuffle T7 Express, buffer 4 (3% mannitol in PBS), 4° C., 1 week); “+++” in data set [4] (T7 Express, buffer 1 (PBS), 4° C., 1 week); “+++++” in data set [4] (T7 Express, buffer 1 (PBS), 37° C., 3 hr). Besides, the Turbidity entry in data set [4] (T7 Express, buffer 1 (PBS), 37° C., 8 hr) was “+++++”; in data set [4] (T7 Express, buffer 2 (1% glycerol in PBS), 4° C., 1 week), “+++”; in data set [4] (T7 Express, buffer 2 (1% glycerol in PBS), 37° C., 3 hr), “+++++”; in data set [4] (T7 Express, buffer 2 (1% glycerol in PBS), 37° C., 8 hr) it was “+++++”; in data set [4] (T7 Express, buffer 3 (5% glycerol in PBS), 4° C., 1 week), “+”; in data set [4] (T7 Express, buffer 3 (5% glycerol in PBS), 37° C., 3 hr), “+++++”. Further, the Turbidity result in data set [4] (T7 Express, buffer 3 (5% glycerol in PBS), 37° C., 8 hr) was “+++++”; in data set [4] (T7 Express, buffer 4 (3% mannitol in PBS), 4° C., 1 week) it was “++”; in data set [4] (T7 Express, buffer 4 (3% mannitol in PBS), 37° C., 3 hr), “+++++”; in data set [4] (T7 Express, buffer 4 (3% mannitol in PBS), 37° C., 8 hr), “+++++”. For the same molecule, the “precipitations (appearance of purified protein)” value is reported as “but not in SHuffle® T7 Express cells” in data set [4] (expressed from SHuffle T7 Express cells) and “a large quantity of precipitations was observed” in data set [4] (expressed from T7 Express cells). For the same molecule, in data set [1], the “binding to VEGFR2 (ELISA)” value is given as “bind to VEGFR2”.

B6: 4VGR17-CD-H: anti-VEGFR2 sdAb 4VGR17 fused to yeast cytosine deaminase, with HIS-tag (protein)
chain: B5 chain with E53Y, S109G
For the molecule B6, the “binding to VEGFR2 (ELISA)” value in data set [1] is given as “bind to VEGFR2”.

B7: AntiCEA-CDoem3-H: anti-CEA sdAb (ABS29544.1) fused to CDoem3, with HIS-tag (protein)
chain: EVQLVESGGGFVQAGESLTLSCTSSTLTFTPYRMAWYRQAPGKQRDLVADISSGDGRTTNYADFAKGRFTISRDNIKNTVFLRMTNLKPEDTAVYYCNTFVSFVGIARSWGQGTQVTVSSGGGGSGGGGSGGGGSVTGGMASKWDQKGMDIAYEEALLGYKEGGVPIGGCLINNKDGSVLGRGHNMRFQKGSATLHGEISTLENCGRLEGKVYKDTTLYTTLSPCDMCTGAIIMYGIPRCVIGENVNFKSKGEKYLQTRGHEVVVVDDERCKKLMKQFIDERPQDWFEDIGEHHHHHH
As to B7, the “binding to CEACAM5 (ELISA)” value in data set [3] is “bind to CEACAM5”.

B8: BCD090-M2-CDoem3-H: anti-HER3 sdAb BCD090-M2 fused to CDoem3, with HIS-tag (protein)
chain: MQVQLVQSGGGLVQAGGSLRLSCAFSGRTFSMYTMGWFRQAPGKEREFVAANRGRGLSPDIADSVNGRFTISRDNAKNTLYLQMDSLKPEDTAVYYCAADLQYGSSWPQRSSAEYDYWGQGTTVTVSSGGGGSGGGGSGGGGSVTGGMASKWDQKGMDIAYEEALLGYKEGGVPIGGCLINNKDGSVLGRGHNMRFQKGSATLHGEISTLENCGRLEGKVYKDTTLYTTLSPCDMCTGAIIMYGIPRCVIGENVNFKSKGEKYLQTRGHEVVVVDDERCKKLMKQFIDERPQDWFEDIGEGSSHHHHHH
B8: the “binding to HER3 (ELISA)” value in data set [5] is recorded as “binds to HER3”.
